Source: patent publication US9650440B2, “Monoclonal antibodies that specifically block biological activity of a tumor antigen” (Morphotek, Inc., priority 2004, dated 2017)

The chains behind the UniProt entries cited, without tags or fusion partners. Residues count along the entry.
UniProt P15328, 25-234: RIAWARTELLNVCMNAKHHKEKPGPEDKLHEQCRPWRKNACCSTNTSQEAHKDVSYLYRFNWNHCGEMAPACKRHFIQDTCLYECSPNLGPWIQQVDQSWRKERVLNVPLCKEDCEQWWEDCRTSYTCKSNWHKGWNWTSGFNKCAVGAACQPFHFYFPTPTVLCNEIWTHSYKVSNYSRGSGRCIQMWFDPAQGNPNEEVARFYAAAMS

What was measured:
FR-α [1] = molecular target: T1, FR-α (Homo sapiens, UniProt P15328); test: Immunohistochemistry, tissue cross-reactivity on human tissues; assay type: binding; parameters: Human tissue samples were obtained at autopsy or biopsy; from tissue; host or cells: human normal and tumour tissues, acetone/formalin-fixed cryosections; key to Expression by IHC: +/− indicates level of expression as detected by immunohistochemistry; +++: +/− indicates level of expression as detected by immunohistochemistry; ++++: +/− indicates level of expression as detected by immunohistochemistry; +++++: +/− indicates level of expression as detected by immunohistochemistry
From the text: Tissue preparation. Human tissue samples were obtained at autopsy or biopsy. Tissues tested included adrenal, blood cells (granulocytes, lymphocytes, monocytes, platelets), blood vessels (endothelium), bone marrow, brain (cerebrum (cortex), cerebellum), breast (mammary gland), eye, gastrointestinal tract (colon (large intestine), esophagus, small intestine, stomach), heart, kidney (glomerulus, tubule), liver, lung, lymph node, ovary and fallopian tube (oviduct), pancreas, parathyroid, peripheral nerve, pituitary, placenta, prostate, salivary gland, skin, spinal cord, spleen, striated (skeletal) muscle, testis, thymus, thyroid, tonsil, ureter, urinary bladder, uterus (body (endometrium), cervix), ovarian carcinoma (carcinoma cells), ovarian carcinoma (stromal fibroblasts). Fresh unfixed tissue samples were placed in molds and frozen on dry ice in TISSUE-TEK O.C.T. embedding medium. Tissue samples were sectioned and fixed for 10 minutes in room temperature acetone. Tissues were stored below −70° C. until staining. Just prior to staining, the slides were fixed in 10% neutral buffered formalin.
Antibody preparation. Antibody was applied to tissue samples at two concentrations: 1 microgram/milliliter and 25 micrograms/milliliter.
Assays lacking primary antibody were used as an assay control. Mouse anti-fluorescein was used as secondary antibody. Goat anti-mouse IgG (GAMIgG)-peroxidase polymer was used as tertiary antibody. 3,3′-diaminobenzidinen (DAB) was used as substrate chromogen.
Immunohistochemistry analysis. An indirect immunoperoxidase procedure was performed. Acetone/formalin-fixed cryosections were rinsed twice in phosphate buffered saline (PBS [0.3M NaCl, pH 7.2]). Endogenous peroxidase was blocked by incubating the slides with peroxidase solution of Dako EnVision Kit for 5 minutes followed by two rinses in phosphate buffered saline. Slides were then treated with a protein block (phosphate buffered saline, 0.5% casein, 5% human gamma globulins, and 1 mg/ml heat aggregated HuIgG (prepared by heating a 5 mg/ml solution to 63° C. for 20 minutes and then cooling to room temperature)) designed to reduce nonspecific binding for 20 minutes. Following the protein block, primary antibody (anti-FR-α antibody, negative control antibody (HuIgG1 or MsIgG1), or none) was applied at room temperature for one hour. Unconjugated secondary antibody (mouse anti-fluorescein) was applied for 30 minutes. Slides were twice rinsed with PBS, treated with peroxidase-labeled goat anti-mouse IgG polymer (Dako EnVision kit) for 30 minutes, rinsed twice with PBS, and treated with substrate-chromogen (DAB; Dako EnVision) for 8 minutes. Slides were rinsed in water, counterstained with hematoxylin, dehydrated, and coverslipped.

[2] = system: human ovarian cancer cells; test: ADCC assay, human ovarian cancer cells as target and PBMCs as effector cells; assay type: cell-based; details: 200 ng/ml antibody produced in CHO cells; PBMCs as effector cells
From the text: The antibodies of the invention preferably induce antibody-dependent cellular cytotoxicity (ADCC) in FR-α bearing cells. ADCC assays are known in the art. The method of the invention enabled successful production of an optimized, humanized anti-FR-α antibody with acceptable antigen binding activity (low nanomolar dissociation constant) and production rates (>10 pg/cell/day).

FR-α [3] = molecular target: T1, FR-α; test: Western blot with anti-FR-α antibody on nonreducing gel; assay type: binding; parameters: lysates prepared from a cell line known to express FR-α; endogenous in cells; host or cells: unnamed FR-α-expressing cell line (lysate); KB cells (secreted soluble FR-α, also after PNGase F); 1205 Lu as negative line

B1: anti-FR-α antibody: humanized anti-FR-α antibody, heavy chain SEQ ID NO:5 and light chain SEQ ID NO:2, expressed in CHO-K1 cells (antibody)
heavy: EVQLVESGGGVVQPGRSLRLSCSASGFTFSGYGLSWVRQAPGKGLEWVAMISSGGSYTYYADSVKGRFAISRDNAKNTLFLQMDSLRPEDTGVYFCARHGDDPAWFAYWGQGTPVTVSSASTKGPSVFPLAPSSKSTSGGTAALGCLVKDYFPEPVTVSWNSGALTSGVHTFPAVLQSSGLYSLSSVVTVPSSSLGTQTYICNVNHKPSNTKVDKKV[human IgG1 Fc not written out]
light: DIQLTQSPSSLSASVGDRVTITCSVSSSISSNNLHWYQQKPGKAPKPWIYGTSNLASGVPSRFSGSGSGTDYTFTISSLQPEDIATYYCQQWSSYPYMYTFGQGTKVEIKRTVAAPSVFIFPPSDEQLKSGTASVVCLLNNFYPREAKVQWKVDNALQSGNSQESVTEQDSKDSTYSLSSTLTLSKADYEKHKVYACEVTHQGLSSPVTKSFNRGEC
IHC reactivity with ovarian carcinoma (stromal fibroblasts), negative control (FR-α [1]): did not react | IHC specific staining in neoplastic human tissues (FR-α [1]): specific staining was observed in ovarian carcinoma tissue, endometrial carcinoma tissue, and renal carcinoma tissue | IHC staining of human ovarian carcinoma cells (HT162), positive control (FR-α [1]; 1 and 25 micrograms/milliliter): specifically and intensely stained | Expression by IHC (FR-α [1]; Tumor tissue origin: Brain): +++ | % positive samples of total tested (FR-α [1]; Tumor tissue origin: Brain, n=5): 80% | Expression by IHC (FR-α [1]; Tumor tissue origin: Breast): ++++ | % positive samples of total tested (FR-α [1]; Tumor tissue origin: Breast, n=53): 21% | Expression by IHC (FR-α [1]; Tumor tissue origin: Colorectal): +++ | % positive samples of total tested (FR-α [1]; Tumor tissue origin: Colorectal, n=27): 22% | Expression by IHC (FR-α [1]; Tumor tissue origin: Endometrial): +++ | % positive samples of total tested (FR-α [1]; Tumor tissue origin: Endometrial, n=11): 91% | Expression by IHC (FR-α [1]; Tumor tissue origin: Lung): +++ | % positive samples of total tested (FR-α [1]; Tumor tissue origin: Lung, n=18): 33% | Expression by IHC (FR-α [1]; Tumor tissue origin: Melanoma): − | % positive samples of total tested (FR-α [1]; Tumor tissue origin: Melanoma, n=8): 0% | Expression by IHC (FR-α [1]; Tumor tissue origin: Normal adult): − | % positive samples of total tested (FR-α [1]; Tumor tissue origin: Normal adult, n=62): 0% | Expression by IHC (FR-α [1]; Tumor tissue origin: Ovarian carcinoma cells): +++++ | % positive samples of total tested (FR-α [1]; Tumor tissue origin: Ovarian carcinoma cells, n=136): 91% | Expression by IHC (FR-α [1]; Tumor tissue origin: Renal): ++++ | % positive samples of total tested (FR-α [1]; Tumor tissue origin: Renal, n=18): 50% | Expression by IHC (FR-α [1]; Tumor tissue origin: lymphoma): − | % positive samples of total tested (FR-α [1]; Tumor tissue origin: lymphoma, n=32): 0% | IHC specific staining in normal human tissues (FR-α [1]; both antibody concentrations (1 and 25 micrograms/milliliter)): specific staining was observed in tubular epithelium (kidney), bronchiolar epithelium (lung); pneumocytes (lung); epithelium of fallopian tube; and duct and ductile epithelium of the pancreas | lysis of target cells [2]: 32% | Western blot detection in lysates of a cell line known to express FR-α (FR-α [3]): able to detect a single polypeptide of Mr˜35 kD | Western blot detection in lysates of a cell line that does not express the antigen (1205 Lu) (FR-α [3]): not in lysates of a cell line that does not express the antigen
